Measured values published in patent publication US20230322822A1, “ARYL PHOSPHOROUS OXIDE COMPOUNDS AND USE THEREOF” (Chengdu Di'ao Jiuhong Pharmaceutical Factory, priority 2020, published 2023).
Blank lines part the entries; values can stand above or below the molecule they belong to.

Sequences of proteins named here, by UniProt entry; tags and fusion partners are left off. Residues count along the entry.
UniProt P00533, 25-1210 C797S limits assumed: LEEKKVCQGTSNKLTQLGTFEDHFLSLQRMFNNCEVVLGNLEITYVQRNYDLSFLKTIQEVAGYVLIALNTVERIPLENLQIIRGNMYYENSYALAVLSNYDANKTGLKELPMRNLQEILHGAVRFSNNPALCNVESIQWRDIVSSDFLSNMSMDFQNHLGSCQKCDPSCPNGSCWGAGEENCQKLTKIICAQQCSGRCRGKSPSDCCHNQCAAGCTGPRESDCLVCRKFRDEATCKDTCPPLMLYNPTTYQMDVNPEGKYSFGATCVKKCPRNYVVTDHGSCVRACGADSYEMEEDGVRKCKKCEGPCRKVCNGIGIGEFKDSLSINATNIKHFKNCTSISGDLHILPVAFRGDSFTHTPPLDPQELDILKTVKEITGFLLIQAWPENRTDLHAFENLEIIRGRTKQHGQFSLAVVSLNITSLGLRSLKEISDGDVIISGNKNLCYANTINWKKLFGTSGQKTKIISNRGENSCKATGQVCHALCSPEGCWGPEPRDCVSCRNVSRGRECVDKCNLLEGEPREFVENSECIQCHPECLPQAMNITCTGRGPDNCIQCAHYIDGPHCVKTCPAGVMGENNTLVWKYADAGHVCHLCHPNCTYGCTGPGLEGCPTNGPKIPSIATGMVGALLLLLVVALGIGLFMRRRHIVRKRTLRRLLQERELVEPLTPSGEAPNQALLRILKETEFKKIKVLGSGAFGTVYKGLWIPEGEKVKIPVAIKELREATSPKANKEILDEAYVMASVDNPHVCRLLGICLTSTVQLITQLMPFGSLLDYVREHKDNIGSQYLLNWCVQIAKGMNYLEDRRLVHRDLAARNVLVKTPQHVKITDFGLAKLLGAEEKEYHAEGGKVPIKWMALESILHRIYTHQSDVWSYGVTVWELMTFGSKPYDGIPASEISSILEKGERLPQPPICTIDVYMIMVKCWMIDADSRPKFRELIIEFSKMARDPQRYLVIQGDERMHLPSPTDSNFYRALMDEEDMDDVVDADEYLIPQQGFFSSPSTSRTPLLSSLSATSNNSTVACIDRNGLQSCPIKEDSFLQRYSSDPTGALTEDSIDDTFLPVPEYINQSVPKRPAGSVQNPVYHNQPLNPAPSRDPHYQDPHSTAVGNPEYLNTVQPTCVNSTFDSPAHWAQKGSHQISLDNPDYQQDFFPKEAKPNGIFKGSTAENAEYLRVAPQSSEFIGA
UniProt P00533, 25-1210 T790M/C797S limits assumed: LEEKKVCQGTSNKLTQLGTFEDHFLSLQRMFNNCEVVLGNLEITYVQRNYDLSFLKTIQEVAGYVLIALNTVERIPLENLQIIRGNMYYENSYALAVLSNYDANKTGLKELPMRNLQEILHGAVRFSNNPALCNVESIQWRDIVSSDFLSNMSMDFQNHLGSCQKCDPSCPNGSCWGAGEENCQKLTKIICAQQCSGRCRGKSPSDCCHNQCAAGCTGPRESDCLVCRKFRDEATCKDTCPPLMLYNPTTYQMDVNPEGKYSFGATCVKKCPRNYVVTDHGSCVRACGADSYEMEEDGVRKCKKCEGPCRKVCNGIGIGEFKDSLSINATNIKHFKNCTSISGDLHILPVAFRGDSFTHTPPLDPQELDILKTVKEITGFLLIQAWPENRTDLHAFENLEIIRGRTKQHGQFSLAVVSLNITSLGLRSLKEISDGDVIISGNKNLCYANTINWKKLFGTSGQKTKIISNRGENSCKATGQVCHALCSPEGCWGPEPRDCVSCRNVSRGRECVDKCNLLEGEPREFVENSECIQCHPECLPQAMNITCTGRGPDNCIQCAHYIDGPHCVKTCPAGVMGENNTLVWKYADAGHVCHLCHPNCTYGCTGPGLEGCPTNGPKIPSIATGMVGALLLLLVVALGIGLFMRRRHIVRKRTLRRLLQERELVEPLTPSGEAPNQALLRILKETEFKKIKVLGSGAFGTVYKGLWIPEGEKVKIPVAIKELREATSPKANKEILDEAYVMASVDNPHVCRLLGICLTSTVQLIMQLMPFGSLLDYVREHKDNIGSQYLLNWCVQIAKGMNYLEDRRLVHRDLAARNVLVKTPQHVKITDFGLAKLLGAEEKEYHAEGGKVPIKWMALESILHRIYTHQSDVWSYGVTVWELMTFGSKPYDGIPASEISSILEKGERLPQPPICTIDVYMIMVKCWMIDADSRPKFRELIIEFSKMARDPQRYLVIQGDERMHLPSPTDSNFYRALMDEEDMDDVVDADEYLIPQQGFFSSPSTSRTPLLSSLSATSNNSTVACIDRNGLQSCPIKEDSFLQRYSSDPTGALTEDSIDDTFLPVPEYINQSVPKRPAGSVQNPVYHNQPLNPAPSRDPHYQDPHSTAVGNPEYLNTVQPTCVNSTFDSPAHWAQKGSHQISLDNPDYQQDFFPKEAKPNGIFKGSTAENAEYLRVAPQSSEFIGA

Assays:
[1] = system: Ba/F3 cells expressing EGFR-C797S/L858R; test: Cell anti-proliferation test 1 (CTG), BaF3 EGFR-C797S/L858R; settings: Mus musculus, BaF3, 72 h, read-out: EGFR-C797S/L858R IC50
[2] = target: EGFR-C797S/Del19 (Homo sapiens, UniProt P00533, C797S, form not given); test: Enzymatic activity test (ADP-Glo) EGFR-C797S/Del19; type: biochemical; settings: kinase
[3] = target: EGFR-C797S/T790M/Del19 (Homo sapiens, UniProt P00533, C797S/T790M, form not given); test: Enzymatic activity test (ADP-Glo) EGFR-C797S/T790M/Del19; type: biochemical; settings: kinase
[4] = system: Ba/F3 cells expressing EGFR-C797S/Del19; test: Cell anti-proliferation test 1 (CTG), BaF3 EGFR-C797S/Del19; settings: Mus musculus, BaF3, 72 h, read-out: EGFR-C797S-Del19 IC50

IC50 [1]: 133 nM
Compound: COc1cc(N2CCC(N3CCN(C)CC3)CC2)c(C)cc1Nc1ncc(Br)c(Nc2ccc(C(C)C)cc2P(C)(C)=O)n1 [Compound 36]

Compound: COc1cc(N2CCC(N3CCN(C)CC3)CC2)c(Br)cc1Nc1ncc(Br)c(Nc2ccc(C)cc2P(C)(C)=O)n1 [Compound 32]
IC50 [2]: 10.5 nM
IC50 [3]: 9.7 nM
IC50 [4]: 51.6 nM
IC50 [1]: 43.8 nM

Compound: CCc1cc(Nc2ncc(Br)c(Nc3ccc(C)cc3P(C)(C)=O)n2)c(OC)cc1N1CCC(N2CCN(C)CC2)CC1 [Compound 12]
IC50 [2]: 9.8 nM
IC50 [3]: 7.5 nM
IC50 [4]: 29.3 nM
IC50 [1]: 113 nM

Compound: COc1cc(N2CCC(N3CCN(C)CC3)CC2)c(C)cc1Nc1ncc(Cl)c(Nc2ccc(C)cc2P(C)(C)=O)n1 [Compound 1]
IC50 [2]: 19.8 nM
IC50 [3]: 10.8 nM
IC50 [4]: 39.9 nM
IC50 [1]: 90 nM

Compound: COc1cc(N2CCC(N(C)C)CC2)c(C)cc1Nc1ncc(Br)c(Nc2ccc(C)cc2P(C)(C)=O)n1 [Compound 6]
IC50 [2]: 33.8 nM
IC50 [3]: 6.6 nM
IC50 [4]: 51 nM
IC50 [1]: 37.1 nM

Compound: COc1cc(N2CCC(N3CCN(C)CC3)CC2)c(C)cc1Nc1ncc(Cl)c(Nc2cccc(C)c2P(C)(C)=O)n1 [Control compound 1, reference compound]
IC50 [2]: > 250 nM
IC50 [3]: 161 nM

IC50 [4]: 79.6 nM
Compound: Cc1ccc(Nc2nc(Nc3cc(C)c(N4CCC(N5CCN(C)CC5)CC4)cc3OCC(F)(F)F)ncc2Br)c(P(C)(C)=O)c1 [Compound 23]

IC50 [4]: 80.6 nM
Compound: COc1cc(N2CCC(N3CCN(C)CC3)CC2)c(C)cc1Nc1ncc(C)c(Nc2ccc(C)cc2P(C)(C)=O)n1 [Compound 4]

IC50 [1]: 103 nM
Compound: CCc1cc(Nc2ncc(Br)c(Nc3ccc(C(C)C)cc3P(C)(C)=O)n2)c(OC)cc1N1CCC(N2CCN(C)CC2)CC1 [Compound 37]

IC50 [4]: 85.2 nM
Compound: COc1cc(N2CCOCC2)c(C)cc1Nc1ncc(Br)c(Nc2ccc(C)cc2P(C)(C)=O)n1 [Compound 28]

Compound: COc1cc(N2CCC(N3CCN(C)CC3)CC2)c(C)cc1Nc1ncc(Br)c(Nc2ccc(C)cc2P(C)(C)=O)n1 [Compound 2]
IC50 [2]: 13.8 nM
IC50 [3]: 4.2 nM

IC50 [4]: 60.1 nM
Compound: COc1cc(N2CCC(N3CCN(C)CC3)CC2)c(C(C)C)cc1Nc1ncc(Br)c(Nc2ccc(C)cc2P(C)(C)=O)n1 [Compound 13]

IC50 [1]: 180 nM
Compound: COc1cc(N2CCC(N3CCN(C)CC3)CC2)c(Cl)cc1Nc1ncc(Br)c(Nc2ccc(F)cc2P(C)(C)=O)n1 [Compound 35]

Compound: COc1cc(N2CCC(N3CCN(C)CC3)CC2)c(C)cc1Nc1ncc(Cl)c(Nc2ccccc2P(C)(C)=O)n1 [Control compound 2, reference compound]
IC50 [2]: > 250 nM
IC50 [3]: > 250 nM

IC50 [4]: 57.8 nM
Compound: COc1cc(N2CCN(C)CC2)c(C)cc1Nc1ncc(Br)c(Nc2ccc(C)cc2P(C)(C)=O)n1 [Compound 29]

Compound: COc1cc(N2CCC(N3CCN(C)CC3)CC2)c(Cl)cc1Nc1ncc(Br)c(Nc2ccc(C)cc2P(C)(C)=O)n1 [Compound 14]
IC50 [2]: 5.7 nM
IC50 [3]: 6.6 nM
IC50 [4]: 43.9 nM
IC50 [1]: 31.7 nM

Compound: Cc1ccc(Nc2nc(Nc3cc(C)c(N4CCC(N5CCN(C)CC5)CC4)cc3OC(F)F)ncc2Br)c(P(C)(C)=O)c1 [Compound 24]
IC50 [2]: 41.6 nM
IC50 [3]: 24.5 nM
IC50 [4]: 41.6 nM

Compound: COc1cc(N2CCC(N(C)C)CC2)c(C)cc1Nc1ncc(Cl)c(Nc2ccc(C)cc2P(C)(C)=O)n1 [Compound 5]
IC50 [2]: 73.7 nM
IC50 [3]: 6.9 nM
IC50 [4]: 50 nM
IC50 [1]: 90.6 nM

IC50 [1]: 84.9 nM
Compound: COc1cc(N2CCC(N3CCN(C)CC3)CC2)c(C)cc1Nc1ncc(Br)c(Nc2ccc(Cl)cc2P(C)(C)=O)n1 [Compound 33]

Compound: COc1cc(N2CCC(N3CCN(C)CC3)CC2)ccc1Nc1ncc(Cl)c(Nc2ccc(C)cc2P(C)(C)=O)n1 [Control compound 3, reference compound]
IC50 [2]: > 250 nM
IC50 [3]: > 250 nM

Compound: COc1cc(N2CCC(N3CCN(C)CC3)CC2)c(C)cc1Nc1ncc(Br)c(Nc2ccc(F)cc2P(C)(C)=O)n1 [Compound 11]
IC50 [2]: 10.7 nM
IC50 [3]: 4.4 nM
IC50 [4]: 66.1 nM
IC50 [1]: 24.1 nM

IC50 [4]: 55.6 nM
Compound: COc1cc(N2CCC(N3CCOCC3)CC2)c(C)cc1Nc1ncc(Br)c(Nc2ccc(C)cc2P(C)(C)=O)n1 [Compound 30]

Compound: COc1cc(N2CCC(N3CCN(C)CC3)CC2)c(C)cc1Nc1ncc(Br)c(Nc2cc(C)ccc2P(C)(C)=O)n1 [Compound 9]
IC50 [2]: 41.9 nM
IC50 [3]: 26.4 nM
